Results as given in patent publication US10584159B2, “Renilla based biosensors for monitoring biomolecule localization and trafficking in cells” (The Royal Institution for the Advancement of …, priority 2014, dated 2020).

Sequences of proteins named here, by UniProt entry; tags and fusion partners are left off. A change or cut given only in a name is not applied to a line headed by its entry.
UniProt P43088: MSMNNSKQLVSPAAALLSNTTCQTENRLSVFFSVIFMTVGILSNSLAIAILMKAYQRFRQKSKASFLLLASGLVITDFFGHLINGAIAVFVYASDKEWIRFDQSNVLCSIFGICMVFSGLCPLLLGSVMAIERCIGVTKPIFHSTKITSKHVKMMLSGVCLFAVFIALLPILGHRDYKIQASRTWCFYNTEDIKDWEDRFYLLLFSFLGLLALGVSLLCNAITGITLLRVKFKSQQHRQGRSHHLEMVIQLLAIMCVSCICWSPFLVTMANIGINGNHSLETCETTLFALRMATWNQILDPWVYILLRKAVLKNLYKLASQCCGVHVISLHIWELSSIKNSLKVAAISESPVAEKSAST

Biological target: T1, PGF2α receptor (FP) (Homo sapiens, UniProt P43088)
T1 construct: expressed in transfected cells; host or cells: HEK293SL
Test: β-arrestin2 targeting to endosomes BRET (βarr2-RlucII/rGFP-endofinFYVE) with FP
Assay type: cell-based
Conditions: 40 min
Method: BRET measurements for FIGS. 1B to 9D, 25D to 25F. The following day of transfection, cells were detached and replated onto poly-ornithine coated white 96-well plate at a density of 25,000 cells per well. The next day, cells were washed once with pre-warmed Tyrode's buffer (140 mM NaCl, 2.7 mM KCl, 1 mM CaCl2, 12 mM NaHCO3, 5.6 mM D-glucose, 0.5 mM MgCl2, 0.37 mM NaH2PO4, 25 mM HEPES, pH 7.4), and then stimulated with either various concentrations of ligands in Tyrode's buffer for the indicated time, or single concentration of ligands for various times at 37° C. For recycling experiment, after stimulating the cells with the ligands for 30 min at 37° C., they were washed either three times with ice-cold Tyrode's buffer or once with Tyrode's buffer/three times with acid (50 mM sodium citrate, pH 4.0)/two times with Tyrode's buffer. All the washing steps were performed on ice. […] The cell-permeable substrate, coelenterazine 400a was added at a final concentration of 5 μM in Tyrode's buffer 3-4 min before BRET measurements. […] The BRET signal was determined by calculating the ratio of the light intensity emitted by the GFP10 or rGFP over the light intensity emitted by the RlucII. All the BRET measurements were performed in triplicate at 37° C.

Substance: Prostaglandin F2α [PGF2α]
- receptor/β-arrestin targeting to endosomes: no increase over basal in the BRET ratio was detected
